Target: xanthine oxidase (bovine milk-derived) (Bos taurus, UniProt P80457)
Test: XO inhibition assay in vitro (UV absorbance at 295 nm)
Assay type: biochemical
Conditions: xanthine substrate, 37 °C, mean of three independent experiments, read-out: IC50, direct XO inhibitory activity

By UniProt entry, the sequences of proteins in these tests, tags left out.
UniProt P80457, whole entry: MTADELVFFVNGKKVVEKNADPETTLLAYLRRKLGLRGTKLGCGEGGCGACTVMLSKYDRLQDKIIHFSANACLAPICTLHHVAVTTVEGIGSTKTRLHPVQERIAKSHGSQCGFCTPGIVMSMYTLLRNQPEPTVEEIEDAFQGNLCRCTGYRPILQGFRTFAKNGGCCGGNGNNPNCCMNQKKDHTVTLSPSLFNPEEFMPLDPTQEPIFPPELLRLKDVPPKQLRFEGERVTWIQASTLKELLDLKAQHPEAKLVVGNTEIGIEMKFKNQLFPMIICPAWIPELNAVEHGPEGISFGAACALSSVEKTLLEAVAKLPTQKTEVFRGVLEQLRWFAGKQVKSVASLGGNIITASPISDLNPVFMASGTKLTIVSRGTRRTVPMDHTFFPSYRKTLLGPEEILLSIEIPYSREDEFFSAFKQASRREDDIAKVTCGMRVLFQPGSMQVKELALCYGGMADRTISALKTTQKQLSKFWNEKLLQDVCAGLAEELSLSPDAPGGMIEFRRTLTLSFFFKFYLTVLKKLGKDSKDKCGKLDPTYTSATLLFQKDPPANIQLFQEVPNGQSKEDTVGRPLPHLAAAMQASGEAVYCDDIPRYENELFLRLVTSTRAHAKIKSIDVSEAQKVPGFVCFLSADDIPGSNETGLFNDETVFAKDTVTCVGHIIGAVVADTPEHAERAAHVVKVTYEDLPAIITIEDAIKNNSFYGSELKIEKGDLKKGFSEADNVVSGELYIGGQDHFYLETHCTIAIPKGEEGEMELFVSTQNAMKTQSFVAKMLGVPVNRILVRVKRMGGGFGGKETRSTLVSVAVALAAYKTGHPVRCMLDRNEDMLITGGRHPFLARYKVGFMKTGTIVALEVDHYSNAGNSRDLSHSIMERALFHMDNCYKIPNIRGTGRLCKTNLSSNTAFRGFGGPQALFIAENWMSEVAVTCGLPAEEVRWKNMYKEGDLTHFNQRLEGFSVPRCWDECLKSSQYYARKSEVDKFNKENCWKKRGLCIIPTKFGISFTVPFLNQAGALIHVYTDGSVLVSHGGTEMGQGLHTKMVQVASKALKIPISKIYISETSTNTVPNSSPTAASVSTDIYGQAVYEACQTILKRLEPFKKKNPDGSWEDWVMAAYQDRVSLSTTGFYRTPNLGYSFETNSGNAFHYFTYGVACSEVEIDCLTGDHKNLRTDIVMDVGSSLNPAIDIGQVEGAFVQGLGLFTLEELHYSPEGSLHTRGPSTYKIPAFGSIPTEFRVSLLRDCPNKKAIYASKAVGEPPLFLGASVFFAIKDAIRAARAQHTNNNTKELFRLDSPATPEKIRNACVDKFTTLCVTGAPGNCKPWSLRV

IC50: 3.9 µM
Structure (SMILES): O=c1c(O)c(-c2ccc(O)cc2)oc2cc(O)cc(O)c12 [Kaempferol, kaempferol]

Reference: publication PMC12526004, “Tiliroside Suppresses Uric Acid Production in Hepatocytes and Attenuates Purine-Induced Hyperuricemia in Male ICR Mice” (Molecules, 2025)
